Reference: article PMC13181761, “New Analogs of the Compstatin Family of Clinical Complement Inhibitors with Low Picomolar Target Affinity” (Journal of Medicinal Chemistry, 2026)

System: C3b deposition and TCC formation in CP and LP activation
Assay: CP and LP activation ELISA / duplex ELISA (C3b and TCC detection)
Format: biochemical, human
Settings: 1% NHS, up to 500 nM
Description: Simultaneous monitoring of complement activation markers at the level of C3b-deposition and terminal complement complex (TCC) formation was assessed using biotinylated Cp60 and a mouse antihuman TCC mAb (clone aE11, Hycult), respectively. To evaluate classical pathway activity, flat-bottom MaxiSorp 96-well plates (Thermo) were coated overnight at room temperature with 33 μg/mL IgM (Sigma-Aldrich) diluted in 0.1 M sodium carbonate buffer. For lectin pathway activity, plates were coated overnight with 55 μg/mL mannan (from Saccharomyces cerevisiae; Sigma-Aldrich). Plates were washed 5 times with phosphate-buffered saline (PBS; Dulbecco’s, Bioconcept) supplemented with 0.05% Tween-20 (PBS-T). […] Alkaline phosphatase yellow pNPP substrate (Sigma-Aldrich) was added, and the colorimetric reaction was monitored at 405 nm by using a plate reader (Synergy HT, BioTek) at 37 °C for 15 min. Following TCC quantification, plates were washed 5 times with PBS-T, and 1-Step Turbo TMB-ELISA solution (Thermo Scientific) was added for C3b quantification. The reaction was allowed to develop until a light blue color appeared and was stopped by adding 100 μL of 2 M sulfuric acid; the absorbance was measured at 450 nm. […]

B1: eculizumab: anti-C5 terminal pathway blocker; surrogate of the clinical mAb (MedChemExpress) (antibody, chains of the INN, looked up)
heavy: QVQLVQSGAEVKKPGASVKVSCKASGYIFSNYWIQWVRQAPGQGLEWMGEILPGSGSTEYTENFKDRVTMTRDTSTSTVYMELSSLRSEDTAVYYCARYFFGSSPNWYFDVWGQGTLVTVSSASTKGPSVFPLAPCSRSTSESTAALGCLVKDYFPEPVTVSWNSGALTSGVHTFPAVLQSSGLYSLSSVVTVPSSNFGTQTYTCNVDHKPSNTKVDKTVERKCCVECPPCPAPPVAGPSVFLFPPKPKDTLMISRTPEVTCVVVDVSQEDPEVQFNWYVDGVEVHNAKTKPREEQFNSTYRVVSVLTVLHQDWLNGKEYKCKVSNKGLPSSIEKTISKAKGQPREPQVYTLPPSQEEMTKNQVSLTCLVKGFYPSDIAVEWESNGQPENNYKTTPPVLDSDGSFFLYSRLTVDKSRWQEGNVFSCSVMHEALHNHYTQKSLSLSLG
light: DIQMTQSPSSLSASVGDRVTITCGASENIYGALNWYQQKPGKAPKLLIYGATNLADGVPSRFSGSGSGTDFTLTISSLQPEDFATYYCQNVLNTPLTFGQGTKVEIKRTVAAPSVFIFPPSDEQLKSGTASVVCLLNNFYPREAKVQWKVDNALQSGNSQESVTEQDSKDSTYSLSSTLTLSKADYEKHKVYACEVTHQGLSSPVTKSFNRGEC
effect on TCC deposition and C3 opsonization: affected only TCC deposition but not C3 opsonization
